Only a part is listed here, and it is no random draw. The source made the active and inactive calls. No stated cut-off is given here; in the data, active means inhibition above about 40%; inactive means the rest.

The assay can be described thus: NF-kB reporter suppression in CF airway cells – cell-based, GFP fluorescence, single concentration, confirmation (AID 602472).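 Further: stimulus PAF is a Pseudomonas aeruginosa filtrate and not platelet activating factor; plate controls were DMSO wells with stimulus for no effect and unstimulated DMSO wells for full effect.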 The note with it: KKLEB CF airway cells, PAF-induced NF-kB-GFP fluorescence, overnight; at 5 µM; stronger effect = higher value.
By inhibition is commonly meant the change of the read-out against control, counted positive when it falls. With `CN(C)C(=O)c1cc([N+](=O)[O-])cc2c1-c1c(cc([N+](=O)[O-])cc1[N+](=O)[O-])C2=O`, the inhibition is active: 58.9%.

Turning to `CSc1ccc(Nc2c([N+](=O)[O-])cc([N+](=O)[O-])cc2[N+](=O)[O-])cc1`, the inhibition was inactive: -58%.

(Values after PubChem BioAssay AID602472 (Sanford-Burnham Center for Chemical Genomics, 2012).)
